Laboratory results: patent publication US8207199B2, “Azole compound” (dated 2012)

Tested on: L5/L6 spinal nerve-ligated rat
Assay: Antiallodynia effect in L5/L6 spinal nerve-ligated rat (neuropathic pain model), von Frey hair test (Test Example 3)
Details: 3 mg/kg orally, 60 minutes before response threshold measurement; operated paw 0%, non-operated paw 100% in solvent group
Source text: The presence of a therapeutic effect for neuropathic pain may be confirmed by methods known to those skilled in the art or by methods modified from them. For example, using an L5/L6 spinal nerve ligated rat that is produced according to partial modification of a Kim and Chung's method (Pain, Vol. 50, pp. 355-363, 1992), the improving effect of a compound for significant reduction in the response threshold to tactile stimulation (allodynia) can be evaluated, and based on it, the effect for treating neuropathic pain may be confirmed.
Test Example 3: Antiallodynia Effect of Compound in L5/L6 Spinal Nerve-Ligated Rat (Neuropathic Pain Model):
A 5 to 6-week age male SD rat was subjected to the operation of ligating its left-side L5 and L6 spinal nerves with silk threads, under pentobarbital anesthesia. For evaluating the analgesic effect, a von Frey hair test was employed. That is, the hindlimb of the animal was picked with hair, whereupon the minimum strength of the hair which caused limb withdrawal response was referred to as the response threshold to the mechanical stimulation (log gram). […] On the day before the day when the test compound would be tested, the response threshold before test compound administration was measured. […] In the evaluation test of the test compounds, the response threshold after test compound administration was measured. […]

O=C(/C=C/c1ccccc1)N1CCN(C(=O)Oc2cccnc2)CC1
Recovery rate (%): 47%
